For 26 compounds, max response results are on record in PubChem BioAssay AID652105 (National Center for Advancing Translational Sciences (NCATS), 2013).

Sequences of proteins named here, by UniProt entry; tags and fusion partners are left off.
UniProt P48426, whole entry: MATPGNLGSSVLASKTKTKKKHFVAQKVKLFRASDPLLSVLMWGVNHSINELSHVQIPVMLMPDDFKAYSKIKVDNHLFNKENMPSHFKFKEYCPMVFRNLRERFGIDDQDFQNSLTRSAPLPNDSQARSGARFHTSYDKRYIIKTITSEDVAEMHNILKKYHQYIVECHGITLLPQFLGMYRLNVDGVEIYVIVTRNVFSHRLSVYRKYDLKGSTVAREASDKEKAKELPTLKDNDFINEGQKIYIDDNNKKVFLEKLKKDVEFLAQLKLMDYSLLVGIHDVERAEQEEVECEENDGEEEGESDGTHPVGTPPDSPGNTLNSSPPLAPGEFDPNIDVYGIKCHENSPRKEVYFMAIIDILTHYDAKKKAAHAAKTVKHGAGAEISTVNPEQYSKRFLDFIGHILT

Only a part is listed here, and it is no random draw. Some results for these compounds are left out of this collection, so the calls shown say nothing about other tests. The source made the active and inactive calls. How the source made its calls: active means max response of -50% or lower; inconclusive means between -30% and -50%; inactive means -30% or higher.
On the % scale 0 is the no-effect control and ±100 the full control effect.

For the assay, the target named is Phosphatidylinositol 5-phosphate 4-kinase type-2 alpha (Homo sapiens) (UniProt P48426). Kind of assay: qHTS for Inhibitors of phosphatidylinositol 5-phosphate 4-kinase (PI5P4K). Further: value at the top dose of about 77 µM. The note with it: PI5P4Kalpha enzyme, ADP-Glo luminescence, 60 min; stronger effect = lower value. The source says:
In addition to finding PI5P, we discovered the type II phosphatidylinositol 5-phosphate 4-kinase (PI5P4K) family (alpha, beta, gamma isoforms) that catalyze the conversion of PI5P to PI(4,5)P2. Alternatively, PI(4,5)P2 can also be synthesized through phosphatidylinositol-4-phosphate (PI4P) by the type I phosphatidylinositol 4-phosphate 5-kinases (PI4P5K). These PI5P4K enzymes therefore represent one way by which cells can regulate endogenous PI5P levels and play important roles in insulin signaling and in stress responses.
This proposal aims to identify and optimize specific modulators of human PI5P4K, phosphatidylinositol-5-phosphate 4-kinase (Type II PIPK), a family of kinases that regulate AKT signaling and tumor cell growth. In this project we aim to identify inhibitors of human PI5P4K using a quantitative high-throughput screening approach against the MLSMR containing ~400,000 small molecules.
NIH Chemical Genomics Center [NCGC]
NIH Molecular Libraries Probe Centers Network [MLPCN]
Assay Submitter (PI): Atsuo Sasaki, Beth Israel Deaconess Medical Center
2 microL of PI5P4Kalpha/substrate buffer (columns 1-2, 5-48) are dispensed into Greiner white solid bottom 1536-well assay plates; column 3 receives only PI5P4Kalpha buffer as 0x substrate controls; column 4 receives only substrate buffer as 0x PI5P4Kalpha controls. Final assay buffer consists of 0.038 M HEPES pH 7.4, 0.28 mM EGTA, 0.1% CHAPS, and 5% DMSO (final concentration). Compounds are then transferred via Kalypsys pin tool equipped with 1536-pin array (10 nL slotted pins, V&P Scientific, San Diego, CA). Following addition of compound, 1 microL of ATP (5 microM final concentration, all columns) is added to initiate the reaction. ATP is diluted in an assay buffer consisting of 0.02 M HEPES pH 7.4, 60 mM MgCl2, 15 microM ATP, and 0.1% CHAPS. The plates are then incubated at room temperature for 60 minutes. ADP-Glo reagent 1 is added (2 microL) and plates incubated for 45 minutes, before ADP-Glo reagent 2 (4 microL) is added and plates incubated for 30 minutes. They are then transferred to a ViewLux high-throughput CCD imager (PerkinElmer) wherein single end-point measurements of luminescence are acquired using a clear filter.
On the technique in general: Quantitative high-throughput screening tests each substance at several concentrations.
In the case of `Cc1ccccc1C(=O)NCC1(N2CCCCC2)CCCCC1`, the max response was inactive: 1.11%.

Regarding `CN(C)c1ccc(C(=O)NCC2(N(C)C)CCCCC2)cc1`, the max response was inactive: -7.98%.

As for `CN(C)C1CCCC1OC(=O)C(O)(c1ccccc1)c1ccccc1` (stereo unspecified), the max response is inactive: -11.8%.

As to `C=CCN1CCN(CCOC(=O)C(O)(c2ccccc2)c2ccccc2)CC1`, the max response is inactive: 1.3%.

For the compound `O=C(NCC1(N2CCCCC2)CCCCC1)c1cc(F)c(F)cc1Cl`, the max response was inactive: 5.33%.

Turning to `COc1ccc(C(=O)NCC2(N(C)C)CCCCC2)cc1`, the max response is inactive: 0.683%.

On to `CCN1CCCC(OC(=O)C2(O)c3ccccc3C=Cc3ccccc32)C1` (stereo unspecified), for which the max response is inactive: 10.8%.

Regarding `Cc1cc(C(=O)NCC2(N3CCCCC3)CCCCC2)ccc1[N+](=O)[O-]`, the max response is inactive: -0.162%.

As for `O=C(NCC1(N2CCCCC2)CCCCC1)c1cccc(Br)c1`, the max response is inactive: -3.66%.

`O=C(NCC1(N2CCCCC2)CCCCC1)c1cc([N+](=O)[O-])ccc1Cl`: the max response is inactive: -28.9%.

Consider `CN1[C@@H]2CC[C@H]1CC(OC(=O)C(O)(c1ccccc1)c1ccccc1)C2` (stereo partly specified), for which the max response is inactive: -6.8%.

`CCN(CC)CC(C)C(C)OC(=O)C(O)(c1ccccc1)c1ccccc1` (stereo unspecified): the max response was inactive: -18%.

On to `COc1cc(SC)ccc1C(=O)NCC1(N(C)C)CCCCC1`, for which the max response is inactive: -1.55%.

For the compound `CC(C)N1C(=O)CC2(CCN(CCOC(=O)C(O)(c3ccccc3)c3ccccc3)CC2)C1=O`, the max response was inactive: 8.23%.

On to `Cc1ccc(C(=O)NCC2(N3CCCCC3)CCCCC2)cc1`, for which the max response is inactive: -12.1%.

Consider `O=C(OC1CN2CCC1CC2)C(CO)(c1ccccc1)c1ccccc1` (stereo unspecified), for which the max response was inactive: -5.95%.

For `C=C(C)C#CC(O)(C(=O)OC1CCN(C)CC1)c1ccccc1` (stereo unspecified), the max response is inactive: -4.32%.

`COc1ccc(Br)c(C(=O)NCC2(N3CCCCC3)CCCCC2)c1`: the max response is inactive: -3.75%.

Turning to `CC(C)Oc1ccc(C(=O)NCC2(N(C)C)CCCCC2)cc1`, the max response was inactive: -5.74%.

As to `O=C(OCCN1CCCC1)C(O)(c1ccccc1)c1ccccc1`, the max response is inactive: -0.485%.

Take `CN(C)c1cccc(C(=O)NCC2(N(C)C)CCCCC2)c1`: the max response was inactive: -1.97%.

With `CN(C)C1(CNC(=O)c2ccc(Br)cc2)CCCCC1`, the max response is inactive: -1.34%.

`COc1cc(C(=O)NCC2(N(C)C)CCCCC2)c([N+](=O)[O-])cc1OC`: the max response is inactive: -5.29%.

Take `COc1cccc(C(=O)NCC2(N3CCCCC3)CCCCC2)c1`: the max response was inactive: 0.512%.

Regarding `COc1ccc(Cl)cc1C(=O)NCC1(N(C)C)CCCCC1`, the max response is inactive: -0.733%.

Take `O=C(NCC1(N2CCCCC2)CCCCC1)c1cccc(Cl)c1`: the max response was inactive: 1.76%.
